Experimental data published in patent US8623401B2.

Test: Dog study: fentanyl blood (serum) concentrations by ELISA after oral wafer vs i.m. injection
Settings: dogs, 200 mcg fentanyl by i.m. injection

In the case of CCC(=O)N(c1ccccc1)C1CCN(CCc2ccccc2)CC1, the “Cmax for the absorption of fentanyl” value is reported as “approximately 0.63 ng” and the “Tmax for the absorption of fentanyl” value is reported as 13.8 min.

Some compounds may have been tested in ways that are not shown here.
